In PMC7911104, “ALK2 Receptor Kinase Association with FKBP12.6 Is Structurally Conserved with the ALK2-FKBP12 Complex” (Biomedicines, 2021):

How the values were obtained:
Test in all cases: SEC-MALS; Shodex KW-803 column; proteins at 5 mg/mL in 50 mM HEPES pH 7.5, 300 mM NaCl, 0.5 mM TCEP; 0.5 mL/min; receptor domains alone and mixed with FKBP12.6
Conditions in all cases: both partners purified
[1] = target: T1, ALK6 (BMPR1B) intracellular domain, residues 168-502 (human, UniProt O00238 168-502)
T1 construct: ALK6 (BMPR1B), human, intracellular domain residues 168-502, cloned into pFB-LIC-Bse; source: Sf9 insect cells (baculovirus), purified (nickel-sepharose, TEV cleavage, SEC); not shown: His6, N-terminal, cleaved
T1 sequence (looked up): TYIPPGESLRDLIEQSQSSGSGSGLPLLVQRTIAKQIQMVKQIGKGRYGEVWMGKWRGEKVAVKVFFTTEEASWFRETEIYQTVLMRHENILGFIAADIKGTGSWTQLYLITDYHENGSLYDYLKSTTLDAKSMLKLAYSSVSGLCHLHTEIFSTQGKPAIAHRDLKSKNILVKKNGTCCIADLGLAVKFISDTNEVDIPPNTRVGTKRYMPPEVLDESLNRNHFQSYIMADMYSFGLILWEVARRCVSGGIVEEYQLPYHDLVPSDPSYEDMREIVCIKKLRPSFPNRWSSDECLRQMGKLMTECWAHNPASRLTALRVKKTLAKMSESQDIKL

[2] = target: T2, ALK5 (TGFBR1) intracellular domain, residues 162-503 (human, UniProt P36897 162-503)
T2 construct: ALK5 (TGFBR1), human, intracellular domain residues 162-503, cloned into pFB-LIC-Bse; source: Sf9 insect cells (baculovirus), purified (nickel-sepharose, TEV cleavage, SEC); not shown: His6, N-terminal, cleaved
T2 sequence (looked up): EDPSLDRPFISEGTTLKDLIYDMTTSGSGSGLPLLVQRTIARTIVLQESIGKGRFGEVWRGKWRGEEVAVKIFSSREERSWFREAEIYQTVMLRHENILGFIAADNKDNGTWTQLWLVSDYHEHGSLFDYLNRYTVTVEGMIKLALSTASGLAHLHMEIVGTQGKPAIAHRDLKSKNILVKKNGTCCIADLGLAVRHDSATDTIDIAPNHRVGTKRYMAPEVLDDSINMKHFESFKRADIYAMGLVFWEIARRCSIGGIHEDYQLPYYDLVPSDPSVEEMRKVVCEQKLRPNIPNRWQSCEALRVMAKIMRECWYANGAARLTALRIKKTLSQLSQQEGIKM

[3] = target: T3, ALK2 (ACVR1) intracellular domain, residues 172-499 (GS and kinase domains) (human, UniProt Q04771 172-499)
T3 construct: ALK2 (ACVR1), human, intracellular residues 172-499 with the GS and kinase domains, cloned into pFB-LIC-Bse; source: Sf9 insect cells (baculovirus), purified (nickel-sepharose, TEV cleavage, SEC); not shown: His6, N-terminal, cleaved
T3 sequence (looked up): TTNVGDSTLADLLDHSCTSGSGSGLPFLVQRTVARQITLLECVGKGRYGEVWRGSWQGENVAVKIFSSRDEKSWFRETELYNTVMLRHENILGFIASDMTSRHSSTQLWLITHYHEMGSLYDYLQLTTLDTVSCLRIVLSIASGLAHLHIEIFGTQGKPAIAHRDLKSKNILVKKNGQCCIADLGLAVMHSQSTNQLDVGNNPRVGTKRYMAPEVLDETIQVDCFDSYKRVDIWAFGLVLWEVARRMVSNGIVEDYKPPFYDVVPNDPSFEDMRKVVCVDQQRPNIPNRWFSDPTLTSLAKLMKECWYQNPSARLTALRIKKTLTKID

- stoichiometry N [1]: 1
- stoichiometry N [2]: 1
- stoichiometry N [3]: 1
B1: FKBP12.6 (FKBP1B), full length, recombinant (natural protein, human, UniProt P68106 1-108, looked up)
chain: MGVEIETISPGDGRTFPKKGQTCVVHYTGMLQNGKKFDSSRDRNKPFKFRIGKQEVIKGFEEGAAQMSLGQRAKLTCTPDVAYGATGHPGVIPPNATLIFDVELLNLE
notes: FKBP12.6 (FKBP1B), human, full length, cloned into pNIC28-Bsa4; 108 amino acids; source: E. coli BL21(DE3)R3-pRARE2, purified (nickel-sepharose, TEV cleavage, SEC); not shown: His6, N-terminal, cleaved
